Measured values reported in US20250155427A1, “CELLS […] TASTE RECEPTORS AND USES THEREOF” (Firmenich Incorporated, priority 2022, published 2025).

Biological target: T1, human T1R1, a rat-human T1R3 chimera, and the promiscuous G-protein G16gust25 (UniProt Q7RTX1+Q923K1, A568E/A645S/A698V/A702T/A793V/A807V/C582S/C678S/E725V/E827G/F612A/F622V/F805L/I617V/I740A/I779T/I803L/K818R/L735F/L823M/L825Q/M644L/M706V/M729T/N675D/Q717H/Q757R/Q795R/Q831P/R632Q/R634S/S576L/S610P/S635P/S637R/S679G/T588V/T694M/T813A/V584A/V718M/V723A/V738A/V744T/V821L/W599R/W676R/W824R/Y598H/Y680C/Y794L)
T1 sequence (Q7RTX1 21-841): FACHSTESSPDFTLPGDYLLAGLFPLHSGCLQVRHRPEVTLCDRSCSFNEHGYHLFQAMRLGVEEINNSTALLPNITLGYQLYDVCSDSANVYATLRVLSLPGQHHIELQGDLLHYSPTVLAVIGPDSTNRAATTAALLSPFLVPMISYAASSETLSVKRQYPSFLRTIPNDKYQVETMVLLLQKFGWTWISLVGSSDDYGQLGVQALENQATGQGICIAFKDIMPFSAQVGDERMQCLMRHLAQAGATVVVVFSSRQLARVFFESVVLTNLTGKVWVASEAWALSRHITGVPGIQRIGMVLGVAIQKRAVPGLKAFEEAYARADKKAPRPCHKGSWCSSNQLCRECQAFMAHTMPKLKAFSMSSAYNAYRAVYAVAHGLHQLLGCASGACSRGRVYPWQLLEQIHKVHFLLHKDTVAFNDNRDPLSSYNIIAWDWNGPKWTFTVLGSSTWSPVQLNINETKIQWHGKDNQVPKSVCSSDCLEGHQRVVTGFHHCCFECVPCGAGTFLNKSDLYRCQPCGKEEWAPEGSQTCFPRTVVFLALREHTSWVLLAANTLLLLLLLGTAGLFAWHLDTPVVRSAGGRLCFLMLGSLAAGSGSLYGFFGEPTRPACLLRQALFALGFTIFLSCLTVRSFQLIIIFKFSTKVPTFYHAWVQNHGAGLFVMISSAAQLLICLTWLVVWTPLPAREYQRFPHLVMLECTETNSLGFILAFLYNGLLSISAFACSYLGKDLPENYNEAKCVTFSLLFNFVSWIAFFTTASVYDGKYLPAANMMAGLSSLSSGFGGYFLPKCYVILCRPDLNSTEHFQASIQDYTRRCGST
T1 sequence (Q923K1 with tags, fused parts or gaps A568E/S576L/C582S/V584A/T588V/Y598H/W599R/S610P/F612A/I617V/F622V/R632Q/R634S/S635P/S637R/M644L/A645S/N675D/W676R/C678S/S679G/Y680C/T694M/A698V/A702T/M706V/Q717H/V718M/V723A/E725V/M729T/L735F/V738A/I740A/V744T/Q757R/I779T/A793V/Y794L/Q795R/I803L/F805L/A807V/T813A/K818R/V821L/L823M/W824R/L825Q/E827G/Q831P limits assumed): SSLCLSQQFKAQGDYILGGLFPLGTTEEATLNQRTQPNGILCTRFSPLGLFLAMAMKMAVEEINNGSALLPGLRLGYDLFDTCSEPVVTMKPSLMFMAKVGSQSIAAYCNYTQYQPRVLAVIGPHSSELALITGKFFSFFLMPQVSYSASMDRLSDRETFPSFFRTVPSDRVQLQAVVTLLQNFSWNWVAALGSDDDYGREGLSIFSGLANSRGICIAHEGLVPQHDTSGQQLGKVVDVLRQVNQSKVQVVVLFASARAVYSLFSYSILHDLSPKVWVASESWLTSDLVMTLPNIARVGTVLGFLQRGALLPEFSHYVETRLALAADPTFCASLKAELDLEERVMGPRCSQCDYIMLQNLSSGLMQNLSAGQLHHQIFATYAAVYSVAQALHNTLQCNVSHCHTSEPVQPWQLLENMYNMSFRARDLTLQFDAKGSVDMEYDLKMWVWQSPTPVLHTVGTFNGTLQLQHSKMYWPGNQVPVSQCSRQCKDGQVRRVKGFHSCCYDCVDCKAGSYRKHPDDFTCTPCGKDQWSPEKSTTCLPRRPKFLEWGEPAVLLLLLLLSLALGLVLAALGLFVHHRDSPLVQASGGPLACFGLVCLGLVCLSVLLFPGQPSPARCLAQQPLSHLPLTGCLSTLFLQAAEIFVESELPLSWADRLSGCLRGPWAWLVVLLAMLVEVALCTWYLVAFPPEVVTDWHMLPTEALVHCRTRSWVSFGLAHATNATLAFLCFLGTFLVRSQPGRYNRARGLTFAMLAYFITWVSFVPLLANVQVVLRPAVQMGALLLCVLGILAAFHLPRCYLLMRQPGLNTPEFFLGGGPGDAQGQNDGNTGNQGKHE
Conditions: MSG with cyclamate added at 8 mM, FIG. 4A

## O=S(=O)(O)NC1CCCCC1 [cyclamate]
  concentration of MSG necessary to reach the EC50 threshold: reduced
